In experiment [1] the test system is ER-negative MDA-MB-231 cells.
The test system of experiment [2] is human breast cancer (MDA-MB-231) cells. The conditions noted are these: text summary of Table 2, no intensity given.

For `O=P1(N(CCCl)CCCl)NCCCO1` (stereo not drawn) [Cyclophosphamide], in experiment [1] (20 mM Cyclophosphamide + 1.75 V/cm TTFields), the “cell number at the end of 72 hours” value is “almost complete loss of cells”. Also, the “cell count lower as compared to number before treatment initiation” value in experiment [1] (20 mM Cyclophosphamide + 1.75 V/cm TTFields, after 24 hours) is reported as 40±3%. Besides, the “cell proliferation after cessation of 24 hour treatment” value in experiment [1] (20 mM Cyclophosphamide alone for 24 hours, then normal conditions) is given as “almost complete recovery of the cell proliferation”. Besides, the “reduction in cell number” value in experiment [1] (20 mM Cyclophosphamide alone, 24 hours) is listed as “approx. 27±2%”. Besides, in experiment [1] (20 mM Cyclophosphamide alone, 72 hours), the “cell number during 72 hour treatment” value is recorded as “linear relatively slow increase in the cell number”.
Take `COc1cccc2c1C(=O)c1c(O)c3c(c(O)c1C2=O)C[C@@](O)(C(=O)CO)C[C@@H]3O[C@H]1C[C@H](N)[C@H](O)[C@H](C)O1` [Doxorubicin]: in experiment [2], the “CI50, combined effect of Doxorubicin and TTFields (additive)” value came out at 1.

The values above are taken from patent US8406870B2, “Treating cancer using electromagnetic fields in combination with other treatment regimens” (priority 2006, dated 2013).
